Columns and labels:
HEK293sieSTAT3(wt) [1] = assay: drug sensitivity score (DSS), cytotoxicity CellTox Green (DSS (dimensionless)); higher = more cytotoxic; extreme values may be limits of the assay; settings: 72 h; STAT3 variant: wild type
Outline: (§1)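 HEK293 cells with a STAT3-dependent luciferase reporter, overexpressing either wild-type or mutant STAT3, were dispensed (20 μl at 100,000 cells/ml) into 384-well plates holding compounds acoustically pre-plated at 5 concentrations in 10-fold dilutions. The plates were kept for 72 hours at 37°C and 5% CO2, then CellTox Green fluorescence (485/520 nm) followed by CellTiter-Glo luminescence was read on a PHERAstar FS. Breeze was used to compute a drug sensitivity score from the dose-response curve area after normalisation to negative and positive control wells, and each value comes from one representative of two experiments.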

HEK293sieSTAT3(Y640F) [2] = assay: as above; settings: 72 h; STAT3 variant: Y640F (constitutively active)
Outline: as §1

HEK293sieSTAT3(wt) [3] = assay: drug sensitivity score (DSS), viability CellTiter-Glo (DSS (dimensionless)); higher = more growth inhibition; extreme values may be limits of the assay; settings: 72 h; STAT3 variant: wild type
Outline: as §1

HEK293sieSTAT3(Y640F) [4] = assay: as above; settings: 72 h; STAT3 variant: Y640F (constitutively active)
Outline: as §1

`NCc1ccc(OCCCc2sc(-c3ccc4c(c3)/C(=N/Nc3nc5ccccc5s3)CCC4)nc2C(=O)O)cc1` [WEHI-539] (top concentration tested 2500 nM) showed a drug sensitivity score (HEK293sieSTAT3(wt) [1]) of 0.89, a drug sensitivity score (HEK293sieSTAT3(Y640F) [2]) of 0 and a drug sensitivity score (HEK293sieSTAT3(wt) [3]) of 0. For the same compound, the drug sensitivity score (HEK293sieSTAT3(Y640F) [4]) was 0.

From the supplement of paper PMC7108870
